Ab-95 light chain CDR variants: yeast mating affinities

Antigen: PDVDLGDISGINAS, a 14-residue peptide of the SARS-CoV-2 spike HR2 region.

Parent scFv Ab-95: VH joined to VL by a 15-residue (Gly4Ser)3 linker. Changes lie in the light chain CDRs alone.
VH: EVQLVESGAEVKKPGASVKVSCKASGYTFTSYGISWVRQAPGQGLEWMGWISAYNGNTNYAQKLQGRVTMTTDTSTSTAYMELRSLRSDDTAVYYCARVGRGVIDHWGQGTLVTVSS
VL: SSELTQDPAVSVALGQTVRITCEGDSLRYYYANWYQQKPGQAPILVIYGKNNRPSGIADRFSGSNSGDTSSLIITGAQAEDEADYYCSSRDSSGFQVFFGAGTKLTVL

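Phage display of a naive human antibody library on the peptide gave the parent. Variants in AAYL52 differ from the parent at up to three CDR positions; double and triple changes were sampled at random. The assay is AlphaSeq: two haploid yeast populations carry antibody and antigen on their surface. After mating in shaken culture at 30 °C for 16 h, diploids were selected and their barcode pairs sequenced. Each replicate has its own calibration line, from reference interactions of the BCL2 family. Each pool was mated in three replicate cultures.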

Substitutions are numbered in sequence along the VL above, starting at 1 (not Kabat). This list gathers variants with a substitution at E23 (VL, numbered from residue 1). Each Kd is an estimate from the mating assay, the geometric mean of the replicates in which the pair was seen; lower is stronger. Where no diploid with the target was found in any replicate, the entry reads "not detected": below detection, most likely a poor binder, though not proof of it. Parent in this assay: reference entry 200 nM, copy in this library 180 nM. Background: pairings of library AAYL52 with three empty control strains gave a value in 28% of cases (median 8.2 µM, 5th percentile 800 nM). Values in that range, when seen in few replicates, are hard to tell from nonspecific mating. Also given: how often the same scFv was detected with the empty control strains.

changes,Kd (apparent),detected,empty controls
E23Y+Q96T+V97F,1.4 µM,3 of 3,1 of 9
E23T+L27C+S92I,810 nM,3 of 3,3 of 9
E23Q+G49K+Q96N,10 µM,2 of 3,5 of 9
E23C+N52T+S55A,18 µM,1 of 3,1 of 9
E23V+A32R+S88R,51 µM,2 of 3,6 of 9
E23V+N52F+S55A,210 nM,3 of 3,3 of 9
E23P+Y30W+G94K,170 µM,2 of 3,4 of 9
E23M+S55Q+V97S,2.2 µM,3 of 3,4 of 9
E23L+N51L+S92L,4.4 µM,3 of 3,1 of 9
E23M+L27G+S88Q,8.3 µM,2 of 3,1 of 9
E23D+A32Q+N33P,6.6 µM,3 of 3,5 of 9
E23S+A32S,140 nM,3 of 3,4 of 9
E23W+R90W,not detected,0 of 3,1 of 9
E23P+S26C+S55A,2.8 µM,3 of 3,2 of 9
E23D+A32I+P54R,94 µM,2 of 3,1 of 9
E23Y,290 nM,3 of 3,5 of 9
E23G+S26E+F95W,11 µM,1 of 3,3 of 9
E23M+Y31M,26 nM,3 of 3,3 of 9
E23R+Y31V+F95I,58 nM,3 of 3,6 of 9
E23T+S26T+Q96T,110 nM,3 of 3,5 of 9
E23C+A32Q+N51Y,6.8 µM,2 of 3,1 of 9
E23T+G49F+G94K,16 µM,1 of 3,4 of 9
E23Q+R28C+D91M,27 µM,2 of 3,4 of 9
E23W+S55F,740 nM,3 of 3,1 of 9
E23C+G24R+Y30G,96 nM,3 of 3,2 of 9
E23D+N33F+S88M,6.9 µM,1 of 3,0 of 9
E23Y+G24V+G49I,21 µM,1 of 3,2 of 9
E23K+G24F+F98Y,270 nM,3 of 3,3 of 9
E23K+S89E+D91V,840 nM,3 of 3,3 of 9
E23R+S26M,4.7 µM,3 of 3,2 of 9
E23Y+S26G+N51F,74 µM,1 of 3,4 of 9
E23Q+L27Q+G49W,not detected,0 of 3,2 of 9
E23I+N33K+N52G,71 µM,2 of 3,0 of 9
E23S+G49A+N52C,1.4 µM,1 of 3,1 of 9
E23F+K50Q+N52R,470 nM,3 of 3,4 of 9
E23S+Y30H+R90A,680 nM,1 of 3,3 of 9
E23N+G24N+N52E,7.3 µM,2 of 3,2 of 9
E23M+N52E+S88L,10 µM,1 of 3,3 of 9
E23M+L27S+R53A,5.9 µM,2 of 3,5 of 9
E23D+K50G+R90N,2.0 µM,3 of 3,1 of 9
E23S+S92F,240 nM,3 of 3,3 of 9
E23Y+G49D+R53H,14 µM,1 of 3,4 of 9
E23G+S55P+S88M,59 nM,3 of 3,5 of 9
E23W+N33C+S93W,570 nM,3 of 3,5 of 9
E23K+S55I,54 nM,3 of 3,1 of 9
E23A+Y30H+R90N,12 µM,2 of 3,3 of 9
E23F+N51A+S88T,2.5 µM,3 of 3,3 of 9
E23G+F95M+F98Y,90 nM,3 of 3,4 of 9
E23N+S26P+N33L,not detected,0 of 3,3 of 9
E23K+D91C+Q96K,11 µM,1 of 3,0 of 9
E23L+Y30W+N33R,56 µM,1 of 3,2 of 9
E23S+G24F+R90H,3.3 µM,2 of 3,5 of 9
E23H+G24W+F98S,1.5 µM,3 of 3,1 of 9
E23S+Y30I+K50E,170 nM,3 of 3,4 of 9
E23Y+S88N+R90A,not detected,0 of 3,4 of 9
E23H+N52T+G94Q,11 µM,1 of 3,5 of 9
E23F+D25Q+Y31A,200 nM,3 of 3,6 of 9
E23L+Y31R+Q96F,760 nM,3 of 3,3 of 9
E23L+L27P+P54R,not detected,0 of 3,3 of 9
E23L+G49Q+V97A,6.2 µM,1 of 3,2 of 9
E23C+Y31G+S88C,120 nM,3 of 3,3 of 9
E23D+Y29H+S92E,63 nM,3 of 3,4 of 9
E23N+S93W+F95Q,2.2 µM,3 of 3,3 of 9
E23A+N51L+G94H,1.8 µM,1 of 3,6 of 9
E23L+S55T+S92A,190 nM,3 of 3,5 of 9
E23Y+L27Y+A32W,12 µM,3 of 3,4 of 9
E23Y+N52I+G94E,not detected,0 of 3,0 of 9
E23D+A32K+K50Q,20 nM,3 of 3,4 of 9
E23W+Y31I+S92A,1.7 µM,1 of 3,3 of 9
E23G+S92N+Q96I,110 nM,3 of 3,8 of 9
E23R+L27I+F98Q,1.6 µM,3 of 3,2 of 9
E23N+Y31M+N33Y,57 µM,3 of 3,4 of 9
E23V+K50W+S93H,1.5 µM,2 of 3,2 of 9
E23M+G24I+Y29N,7.5 µM,3 of 3,6 of 9

From the AlphaSeq antibody data of Engelhart et al. 2022 (doi:10.1038/s41597-022-01779-4), copy in the FLAb collection.